Assay outcomes as filed in PubChem BioAssay.
Most compounds without a hit are left out; they make up all but 0.46% or so of the library.
GIV-Gai inh: blocks GIV peptide binding to rat Galpha-i3; P08753; Galpha-i3/FITC-GIV peptide fluorescence polarization, 90 min; stronger effect = lower value; scaled: aluminum fluoride 0%, vehicle 100%; percent of control (FP), % (no concentration beside the values); 210,000 tested, 0.42% active; AID 1224905;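 active = replicate mean at 85% of control or lower, very high polarization wells dropped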;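 also: wells of about 15 µL received 100 nL stock; the first replicate is given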
HCMV NEC inh: disrupts HCMV UL50-UL53 complex binding | HTRF UL50-UL53 interaction, normalized percent inhibition | inhibition, % (test concentration not listed) | 190,000 tested, 0.15% active | AID 1918969; in the data active means inhibition above about 27%, passing the limit was not always enough
GIV Gai FP conf: GIV-Galpha-i3 inhibition, FP confirmation. FITC-GIV peptide binding to Galphai3, fluorescence polarization; active compounds read low. 580 tested, 38% active. AID 1259350. shares compounds with GIV-Gai inh. fluorescence polarization, mP at 100 µM;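 active means inhibition score of 15 or more, meaning 100 minus mean polarization as percent of control over three replicates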;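 further: lower mP means peptide displaced from Galphai3 so more inhibition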
GIV-Gai AS conf: confirmation of inhibitors of GIV binding to human Galpha-i3; shares compounds with GIV-Gai inh; AlphaScreen Galphai3-GIV binding, purified proteins, 90 min; active compounds read low; AlphaScreen counts at 100 µM; 580 tested, 39% active; AID 1259351;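 active means inhibition score at or above a set limit, where the score is 100 minus the three-replicate mean percent of control signal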
Of the large screens only hits and unclear results are named; the others gave an inactive call (follow-up assays come after a bar, where they were run).

Cc1ccnc(NS(=O)(=O)c2ccc(NC(=O)c3cc4ccccc4oc3=O)cc2)n1	none
COc1ccc(C(=O)Oc2ccc(C=C3C(=O)NC(=O)NC3=O)cc2Cl)cc1	GIV-Gai inh 76, HCMV NEC inh 76 | GIV Gai FP conf inactive | GIV-Gai AS conf 24807
COc1cc(C=C2C(=O)NC(=O)NC2=O)ccc1OC(=O)c1cc(F)c(F)cc1Cl	none
COc1ccc(C(=O)Cc2ccc3c(c2)OCCO3)c(O)c1	none (no result: GIV-Gai inh)
CCOc1ccc(NC(=O)c2cc3n(n2)CCCN(Cc2ccccc2)C3=O)cc1	none
Cc1ccc2c(c1)c1c3n2C=CNC3CCC1 (stereo not given)	GIV-Gai inh 82 | GIV Gai FP conf 52 | GIV-Gai AS conf 25813
Cc1ccc2c(c1)c1c3n2CCCNC3CCC1 (stereo not given)	none
O=C1CN(c2ccccc2)C(=O)N1	none (no result: HCMV NEC inh)
Nc1c2c(nn1-c1ccccc1)CC(=O)NC2=O	GIV-Gai inh 60, HCMV NEC inh 71 | GIV Gai FP conf 47 | GIV-Gai AS conf 31739
Nc1cccc2c1C(=O)N(CC(=O)O)C2=O	GIV-Gai inh 81 | GIV Gai FP conf inactive | GIV-Gai AS conf inactive
Nc1cccc2c1C(=O)N(CC(=O)NC13CC4CC(CC(C4)C1)C3)C2=O	none (no result: GIV-Gai inh)
O=C(c1cc(C2CC2)on1)N1CCN(c2ccccc2)CC1	none (no result: HCMV NEC inh)
CC(C)=NNC(=O)Cc1c[nH]c2cccc(OCC(O)CNC(C)(C)C)c12 (stereo not given)	none | GIV Gai FP conf inactive | GIV-Gai AS conf inactive
CC(C)OC(=O)c1cc2c(OCC(O)CNC(C)(C)C)cccc2[nH]1 (stereo not given)	none (no result: GIV-Gai inh)
Cc1ccc(NC(=O)c2noc3c2CCc2ccccc2-3)cc1	none
COc1ccc(OC)c(C2C(C(=O)Nc3nc4ccccc4s3)=C(C)NC3=C2C(=O)CC(C)(C)C3)c1 (stereo not given)	none
COc1ccc(OC)c(C2C(C(=O)Nc3nc4ccc(Br)cc4s3)=C(C)NC3=C2C(=O)CC(C)(C)C3)c1 (stereo not given)	none | GIV Gai FP conf inactive | GIV-Gai AS conf inactive
Cc1ccc(-c2nc(S(=O)(=O)c3ccc(C)cc3)c(N(C)C)o2)cc1	none (no result: GIV-Gai inh)
CCn1c2ccccc2c2nc3cc4ccccc4cc3nc21	GIV-Gai inh 44 | GIV Gai FP conf 39 | GIV-Gai AS conf inactive
CCn1c2ccc(OC)cc2c2nc3ccccc3nc21	none
CCn1c(=O)c(N2CCC(NC(=O)Nc3ccc(OC)c(OC)c3)CC2)nc2ccccc21	none (no result: HCMV NEC inh)
CCOC(=O)c1sc2nc(SCC(=O)NCc3ccco3)n(Cc3ccccc3Cl)c(=O)c2c1C	none (no result: HCMV NEC inh)
CCOCCCNC(=O)c1ccc(-n2c(-c3ccccc3)cc3c2CCC(C)C3)cc1 (stereo not given)	none
O=c1cc(O)c2sc3nc(-c4ccco4)cc(C(F)(F)F)c3c2[nH]1	GIV-Gai inh 72 | GIV Gai FP conf 60 | GIV-Gai AS conf 5742
Cc1cc(C(F)(F)F)c2c(n1)sc1c(O)cc(=O)[nH]c12	none (no result: HCMV NEC inh)
COc1ccc(-c2cn3nc(N4CCCC(C(=O)Nc5cc(Cl)ccc5OC)C4)sc3n2)cc1 (stereo not given)	none (no result: HCMV NEC inh)
CCc1nc2oc(C(=O)c3ccc(Cl)cc3)c(N)c2c2c1COC(C)(C)C2	GIV-Gai inh 80 | GIV Gai FP conf inactive | GIV-Gai AS conf inactive
CCc1nc2oc(C(=O)c3ccccc3)c(N)c2c2c1COC(C)(C)C2	none (no result: HCMV NEC inh)
CCc1c(C)c(C#N)c2nc3ccccc3n2c1-n1nc(C)cc1C	none | GIV Gai FP conf inactive | GIV-Gai AS conf inactive
CCc1c(C)c(C#N)c2nc3ccccc3n2c1N1CCCC1	none
CCOC(=O)N1CCN(C(=S)Nc2ccc3nsnc3c2)CC1	GIV-Gai inh 77 | GIV Gai FP conf 61 | GIV-Gai AS conf inactive
CCOC(=O)N1CCN(C(=S)Nc2ccc(C)c(C)c2)CC1	none (no result: GIV-Gai inh)
O=C(Nc1cccc2nsnc12)c1nc2ccccc2nc1N1CCCC1	none
O=C(Nc1cccc2nsnc12)c1nc2ccccc2nc1N1CCOCC1	GIV-Gai inh 28 | GIV Gai FP conf inactive | GIV-Gai AS conf inactive
Cc1cc(S(=O)(=O)N2CCC(n3c(=O)[nH]c4ccccc43)CC2)ccc1-n1cnnn1	none
Cc1cc(N2Cc3ccccc3C2)ccc1/C=C1/C(=O)NC(=O)N(C2CCCCC2)C1=O	none (no result: HCMV NEC inh) | GIV Gai FP conf inactive | GIV-Gai AS conf inactive
Cc1ccc(/C=C2/C(=O)NC(=O)N(C3CCCCC3)C2=O)cc1	none
O=C(COC(=O)c1cccs1)NC1CCCC1	none (no result: GIV-Gai inh)
CCCCOc1ccc(C2=N/C(=C\c3ccc(OC(C)=O)c(OC(C)=O)c3)C(=O)O2)cc1	GIV-Gai inh 72 | GIV Gai FP conf inactive | GIV-Gai AS conf inactive
CCCCOc1ccc(C2=N/C(=C\c3ccc(OC)c(OC(C)=O)c3)C(=O)O2)cc1	none
CC(C)OC(=O)CC(=O)CSc1nc(-c2ccccc2)cc(C(F)(F)F)c1C#N	none (no result: HCMV NEC inh)
CC(=O)Nc1cc(C(=O)NCCc2ccccc2)ccc1Sc1ccc(Cl)cc1	none (no result: HCMV NEC inh)
CCCCN(CC)c1ncc(C(=O)O)cc1NS(=O)(=O)c1cc(C)c(C)cc1C	none
Cc1ccc(C)c(S(=O)(=O)Nc2cc(C(=O)O)cnc2N(C)C)c1	none | GIV Gai FP conf inactive | GIV-Gai AS conf 26202
CCN(Cc1ccccc1)c1ncc(C(=O)O)cc1NS(=O)(=O)c1cc(C)cc(C)c1	none
CCN(CC)c1ncc(C(=O)O)cc1NS(=O)(=O)c1cc(C)cc(C)c1	GIV-Gai inh 80 | GIV Gai FP conf inactive | GIV-Gai AS conf 26287
CCOC(=O)N1CCN(C(=O)Cn2cnc3c(nnn3-c3cccc(Cl)c3)c2=O)CC1	none
CCC(C)Cn1c(CN2CCOCC2)nc2ccccc21 (stereo not given)	none
CCNc1nc(NCC)n2c(SCC(=O)N(c3ccccc3)C(C)C)nnc2n1	none
CC1=NN(C(=O)Cc2ccccc2)C(O)(c2ccccc2)C1 (stereo not given)	none (no result: GIV-Gai inh)
CCOc1ccc(C(=O)Nc2ccc3oc(-c4ccncc4)nc3c2)cc1Br	none (no result: HCMV NEC inh)
CCOc1ccc(C(=O)Nc2ccc(-c3nc4ccccc4o3)cc2)cc1Br	GIV-Gai inh 69 | GIV Gai FP conf inactive | GIV-Gai AS conf inactive
Cc1ccc(-c2c(C(F)(F)F)nn3c(N4CCN(C)CC4)cc(C)nc23)cc1	none
Cc1cc(N2CCOCC2)n2nc(C(F)(F)F)c(-c3ccc(Cl)cc3)c2n1	none | GIV Gai FP conf inactive | GIV-Gai AS conf inactive
Cc1ccc(-c2c(C(F)(F)F)nn3c(-n4nc(C)cc4C)cc(C)nc23)cc1	none | GIV Gai FP conf inactive | GIV-Gai AS conf inactive
Cc1cc(N2CCOCC2)n2nc(C)c(-c3ccc(F)cc3)c2n1	none
CCCN1CCC(N2CCCC(C(=O)N3CCCCCC3)C2)CC1 (stereo not given)	none
CCOC(=O)c1cc(-c2ccccc2)n(-c2cccc(C(=O)Nc3ccc(OCC)cc3)c2)c1C	none (no result: HCMV NEC inh)
CCOC(=O)c1noc2ncnc(Nc3ccccc3OC)c12	none
O=C(NCCn1ccc2ccccc21)c1ccc(F)cc1	GIV-Gai inh 60 (no result: HCMV NEC inh) | GIV Gai FP conf inactive | GIV-Gai AS conf inactive
Cc1ccc(C(=O)NCCn2ccc3ccccc32)cc1	none (no result: HCMV NEC inh)
CCCS(=O)(=O)c1nc2ccc(NS(=O)(=O)Cc3ccccc3)cc2s1	none (no result: HCMV NEC inh)
O=C1/C(=C/c2ccc(Cl)cc2)C=C(c2ccccc2)N1c1ccccc1	none (no result: HCMV NEC inh)
O=C1/C(=C/c2ccc(Cl)cc2)C=C(c2ccccc2)N1c1ccc(Cl)cc1	GIV-Gai inh 82 (no result: HCMV NEC inh) | GIV Gai FP conf inactive | GIV-Gai AS conf inactive
